Rows were chosen to be rich in hits. Some 16% of all compounds tested hit in one or more screens of this group.
DT40 TDP1 CPT: growth inhibition of DT40 Tdp1-/-;hTDP1 cells with camptothecin (screen for TDP1 inhibitors); chicken DT40 Tdp1-/-;hTDP1 cells + 20 nM CPT, ATP luminescence, 48 h; 420,000 compounds, 12% hits; Potency, µM (highest dose often 46.2 µM), inactives show at the highest dose activity change, negative = growth inhibition, most hits filed as inhibitors; further: potency means the concentration at half of the fitted maximal effect; on the % scale 0 is the no-effect control and ±100 the full control effect; nearly all actives have a fitted effect of over 55% in size
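Chicken DT40 Tdp1-/- cells complemented with human TDP1, 400 cells/well, exposed to compounds plus 20 nM camptothecin for at least 48 h at 37 C; viability read as ATP content by CellTiter-Glo luminescence.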
uPA surface inh: cell surface uPA generation inhibition. cell surface uPA generation assay, qHTS. Potency, µM (top dose mostly 38.3 µM), inactives show top-dose activity change, negative = inhibition, hits mostly inhibitors. 330,000 compounds, 0.31% hits. AID 540303; active means well fitted inhibition curve with a large enough effect; inconclusive means small, poorly fitted or top-dose-only effect; inactive means no such curve, though single readings can be large or run the other way; tested in mouse RAW 264.7 cells; further: potency means the concentration at half of the fitted maximal effect; on the % scale 0 is the no-effect control and ±100 the full control effect; nearly all actives have a fitted effect of over 55% in size
DT40 TDP1 no CPT: qHTS for Inhibitors of human tyrosyl-DNA phosphodiesterase 1 (TDP1): qHTS in cells in absence of CPT; DT40 Tdp1-/- hTDP1 cells, no CPT, ATP luminescence, 48 h; Potency, µM (highest dose often 46.2 µM), inactives show at the top dose activity change, negative = growth inhibition, hits mostly inhibitors; 420,000 compounds, 15% hits; AID 686978, 2013; further: potency means the concentration at half of the fitted maximal effect; on the % scale 0 is the no-effect control and ±100 the full control effect; nearly all actives have a fitted effect of over 55% in size
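Readout: luminescence from CellTiter-Glo after 30 min in the dark at RT. Cells: DT40 Tdp1-/- with stable hTDP1, 400/well. Exposure: compounds alone, ≥48 hr, 37 °C.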
TDP1 block: inhibitors of human tyrosyl-DNA phosphodiesterase TDP1; recombinant TDP1, AlphaScreen DNA substrate cleavage; AID 485290; 350,000 compounds, 0.28% hits; Potency, µM (series often up to 130 µM), for the others: top-dose activity change, negative = inhibition, hits mostly inhibitors; Q9NUW8; further: potency means the concentration at half of the fitted maximal effect; on the % scale 0 is the no-effect control and ±100 the full control effect; nearly all actives have a fitted effect of over 40% in size
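Enzyme-compound mixtures sat 15 min at room temperature, followed by a 5 min reaction with 15 nM final substrate and 10 min with AlphaScreen beads. Recombinant human Tdp1 was used at 1 nM final.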
miR-21 reporter: miR-21 reporter, rising signal | HeLa miR-21 FLuc reporter, luciferase, 48 h | Potency, µM (doses to about 38.3 µM), inactives show at the top dose reporter change, positive = more light | 340,000 tested, under 10 active | AID 2288; active = well fitted rising curve with a large enough effect; inconclusive = small, poorly fitted or top-dose-only effect; inactive = no such curve, though single readings can be large or run the other way;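 note: % of control where 0% means no effect; miR-21 action dims this reporter so a rising signal means less miR-21 action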
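Using DMEM plus 10% FBS, HeLa miR-21-FLuc cells are incubated with test compounds (final up to about 40uM) for 48 hours; firefly luciferase signal is then imaged following reagent-mediated lysis.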
Active calls of the source: *; u = inconclusive; x = no result. Unless noted, the call rests on the fitted dose curve; in most records, active means well fitted curve in the direction sought with a large enough effect; inconclusive means small, poorly fitted or top-dose-only effect, or another doubt; inactive means no such curve, though single readings can be large; an effect the other way counts as inactive or inconclusive.

Order of results – DT40 TDP1 CPT, uPA surface inh, DT40 TDP1 no CPT, TDP1 block, miR-21 reporter
1: Cc1ccc(C2(c3noc(CN(C)CC4CCCCO4)n3)CCCC2)cc1 (configuration not stated)
  u, -4.4%, u, -4.8%, -1.5%
2: Fc1cccc(Cc2noc(CN3CCC(c4ccncc4)CC3)n2)c1
  18.4µM*, -13.5%, 13µM*, -3.6%, 11.7%
3: Fc1cccc(Cc2noc(CN3CCOCC3)n2)c1
  -12.0%, 3.3%, 3.0%, x, 2.0%
4: COc1cc(OC)cc(C(=O)NN2CCCCC2)c1
  -6.9%, x, -10.6%, 2.1%, 0.0%
5: COc1ccc(Nc2ncc3c(n2)CCN(Cc2ccc(Br)s2)C3)c(OC)c1
  20.6µM*, x, 13µM*, 6.2%, -1.1%
6: COc1ccc(Nc2ncc3c(n2)CCN(Cc2cc(Br)cs2)C3)c(OC)c1
  18.4µM*, x, 14.6µM*, 8.8%, -4.3%
7: COc1ccc(Nc2ncc3c(n2)CCN(Cc2cccc(F)c2F)C3)c(OC)c1
  25.9µM*, x, 20.6µM*, 1.2%, 1.8%
8: COc1ccccc1Nc1ncc2c(n1)CCN(Cc1ccc(C)s1)C2
  -5.6%, x, -10.3%, 3.8%, -7.0%
9: CCOC(=O)N1CCN(C(=O)CNC(=O)C23CC4CC(CC(C4)C2)C3)CC1
  4.1%, -0.8%, -0.4%, 1.9%, -1.0%
10: O=C1CC(c2ccc(F)cc2)Cc2nc(N3CCc4ccccc43)ncc21 (configuration not stated)
  x, x, x, 7.3%, 1.2%
11: CC1(C)CC(=O)c2cnc(N3CCc4ccccc43)nc2C1
  u, -5.8%, 25.9µM*, -1.4%, -79.0%
12: CCOC(=O)N1CCN(S(=O)(=O)c2ccc(C(=O)N(CCCN(C)C)c3nc4cc(OC)ccc4s3)cc2)CC1
  -15.6%, -6.4%, -5.4%, 2.9%, x
13: CCC(C)Nc1ccc(NC(C)CC)cc1 (configuration not stated)
  4.11µM*, u, -85.5%, 11.8%, x
14: Cc1ccc2oc(=O)c3cc(C(=O)NCCN4CCN(C)CC4)sc3c2c1
  23.1µM*, -8.5%, u, 2.2%, -1.0%
15: Cc1ccc2oc(=O)c3cc(C(=O)NCCCN4CCCCCC4)sc3c2c1
  u, -1.3%, u, -1.0%, 0.1%
16: Cc1ccc2oc(=O)c3cc(C(=O)NCCCN4CCc5ccccc5C4)sc3c2c1
  18.4µM*, 18.0%, u, 2.6%, -6.3%
17: CC1(C)O[C@@H]2[C@@H](O1)C(c1ccccc1)(c1ccccc1)OP(=O)(O)OC2(c1ccccc1)c1ccccc1
  x, x, x, 4.4%, x
18: Cc1ccc(NC(=O)Nc2cccc(F)c2)nc1
  0.3%, 0.5%, -10.8%, x, -50.1%
19: CC(C)C(C)(C#N)NC(=O)CSc1nc2scc(-c3ccc(F)cc3)c2c(=O)n1Cc1ccccc1 (configuration not stated)
  u, 9.1%, u, 5.5%, -5.1%
20: CC(C)CC(=O)N(c1ccc(F)cc1)C1C=CS(=O)(=O)C1 (configuration not stated)
  -3.1%, 4.6%, -9.7%, 0.0%, -2.8%
21: Cc1ccc(S(=O)(=O)/N=C(\CCl)N2CCOCC2)cc1
  14.6µM*, -9.9%, 16.4µM*, 2.6%, 16.0%
22: COCCCNc1ncnc2sc3c(c12)CCC(C)C3 (configuration not stated)
  u, -4.0%, 23.1µM*, -7.5%, -21.8%
23: O=C(CSc1ccc(Cl)cc1)Nc1cccc(-c2nnc(-c3ccco3)o2)c1
  u, 4.2%, u, 0.0%, -25.3%
24: Cc1ccc(SCC(=O)Nc2cccc(-c3nnc(-c4ccco4)o3)c2)cc1
  18.4µM*, -5.6%, u, 5.6%, 16.4%
25: COc1ccc(Br)cc1C(=O)Nc1cccc(-c2nnc(-c3ccco3)o2)c1
  23.1µM*, 6.0%, u, x, x
26: CN(C)c1ccc(S(=O)(=O)NCC(=O)OCC(=O)Nc2cc(Cl)cc(Cl)c2)cc1[N+](=O)[O-]
  -5.9%, 0.6%, -4.9%, 4.1%, -3.2%
27: CCCC1C(=O)N(c2ccccc2)C1c1ccccc1 (configuration not stated)
  1.4%, 1.6%, -16.0%, -2.0%, -6.2%
28: Cc1ccc(N2C(=O)C(CN3CCCC3)C2c2ccccc2)cc1 (configuration not stated)
  20.6µM*, 9.8%, 23.1µM*, 3.6%, -11.3%
29: Cc1ccc(C2N(c3ccccc3)C(=O)N3CCCN23)cc1 (configuration not stated)
  u, 17.0%, -15.5%, -5.1%, -1.0%
30: Cc1ccc(N2C(=O)C(CN3CCCCC3)C2c2ccccc2)cc1 (configuration not stated)
  u, x, 18.4µM*, -2.7%, 0.2%

Record cards (already shown):
COc1cc(OC)cc(C(=O)NN2CCCCC2)c1 is listed with DT40 TDP1 CPT: -6.9%; uPA surface inh: x; DT40 TDP1 no CPT: -10.6%; TDP1 block: 2.1%; miR-21 reporter: 0.0%
O=C1CC(c2ccc(F)cc2)Cc2nc(N3CCc4ccccc43)ncc21 (configuration not stated) is listed with DT40 TDP1 CPT: x; uPA surface inh: x; DT40 TDP1 no CPT: x; TDP1 block: 7.3%; miR-21 reporter: 1.2%

Four entries drawn at random from the list so far:
Order of results – DT40 TDP1 CPT, uPA surface inh, DT40 TDP1 no CPT, TDP1 block, miR-21 reporter
27: CCCC1C(=O)N(c2ccccc2)C1c1ccccc1 (configuration not stated)
  1.4%, 1.6%, -16.0%, -2.0%, -6.2%
17: CC1(C)O[C@@H]2[C@@H](O1)C(c1ccccc1)(c1ccccc1)OP(=O)(O)OC2(c1ccccc1)c1ccccc1
  x, x, x, 4.4%, x
12: CCOC(=O)N1CCN(S(=O)(=O)c2ccc(C(=O)N(CCCN(C)C)c3nc4cc(OC)ccc4s3)cc2)CC1
  -15.6%, -6.4%, -5.4%, 2.9%, x
15: Cc1ccc2oc(=O)c3cc(C(=O)NCCCN4CCCCCC4)sc3c2c1
  u, -1.3%, u, -1.0%, 0.1%

(cont.)
Order of results – DT40 TDP1 CPT, uPA surface inh, DT40 TDP1 no CPT, TDP1 block, miR-21 reporter
31: CCOc1ccccc1NC(=O)CCCCCN1C(=O)[C@@H]2Cc3ccccc3CN2C1=O
  -1.2%, -1.6%, u, 2.0%, 3.8%
32: CCOC(=O)NC(=O)CSc1ccc(S(=O)(=O)N2CCCCC2)cn1
  -11.2%, 6.7%, -25.8%, -0.1%, x
33: CCOC(=O)N1CCN(C(c2cc3ccccc3o2)c2nnnn2C(C)(C)C)CC1 (configuration not stated)
  -4.5%, x, u, x, x
34: CCC(c1nnnn1-c1c(C)cccc1C)N1CCN(CCN2CCOCC2)CC1 (configuration not stated)
  -7.5%, x, -15.6%, x, x
35: Cc1cccc(C)c1-n1nnnc1C(c1cc2ccccc2o1)N1CCN(C/C=C/c2ccccc2)CC1 (configuration not stated)
  18.4µM*, x, 23.1µM*, x, x
36: Cc1cccc(C)c1-n1nnnc1C(c1cccc2ccccc12)N1CCN(C/C=C/c2ccccc2)CC1 (configuration not stated)
  4.61µM*, x, 5.8µM*, x, x
37: COc1cccc(-c2nc(NC3CCCC3)c3ccccc3n2)c1O
  u, -16.6%, 18.4µM*, x, 20.5%
38: CCN(CC)c1nc(-c2cccc(OC)c2O)nc2ccccc12
  18.4µM*, 0.1%, 23.1µM*, 10.1%, 3.1%
39: COc1cccc(-c2nc(N3CCN(C)CC3)c3ccccc3n2)c1O
  -109.7%, -12.8%, 16.4µM*, -1.4%, 6.7%
40: Cc1nc2ccccc2nc1CN1CCC(CO)(CC2CCCCO2)CC1 (configuration not stated)
  4.6%, 0.1%, -18.0%, -2.7%, -0.1%
41: COc1cccc(NC(=O)c2oc3ccccc3c2NC(=O)c2cc3ccccc3o2)c1
  13µM*, x, 18.4µM*, 1.3%, -5.8%
42: COc1ccccc1NC(=O)c1oc2ccccc2c1NC(=O)C1CCCCC1
  -23.0%, x, u, 9.0%, -3.2%
43: O=C(CCl)Nc1c(C(=O)Nc2ccc3c(c2)OCCO3)oc2ccccc12
  5.17µM*, -18.0%, 10.3µM*, u, 16.9%
44: COc1cccc(NC(=O)c2oc3ccccc3c2NC(=O)c2ccc3c(c2)OCO3)c1
  14.1µM*, x, u, -1.0%, -14.5%
45: COc1cccc(NC(=O)c2oc3ccccc3c2NC(=O)C2CCCCC2)c1
  u, x, 16.4µM*, -6.4%, -1.3%

High-throughput results from PubChem.
